From publication PMC4089508 (Bioorganic & medicinal chemistry, 2014)

System: colchicine site on tubulin
Conditions: 5 μM compound

COc1ccc(/C=C\c2cc(OC)c(OC)c(OC)c2)cc1O [CA-4, combretastatin A-4]
Inhibition of colchicine binding % inhibition: 99 ± 0.2%
